{"source": "patent US5053389A", "about": "“Insulin preparation for non-parenteral administration” (priority 1986, dated 1991)", "origin": "cited, not measured here", "key": {"[1]": {"conditions": "nasal"}, "[2]": {"conditions": "rectal, suppository"}, "[3]": {"conditions": "subcutaneous injection of dissolved insulin"}, "[4]": {"conditions": "oral"}}, "note": "Like-named read-outs stand apart in the source and are kept apart here.", "data": [{"substance": "insulin", "values": [{"measurement": "Proportion of insulin absorbed", "setting": "[1]; dissolved and atomized form", "result": "up to 20%"}, {"measurement": "Time to maximum insulin concentration", "setting": "[1]; drops or atomized solution", "result": "10 to 30", "unit": "min"}, {"measurement": "Absorption of the amount of insulin administered", "setting": "[2]", "result": "about 5%"}, {"measurement": "Time to maximum insulin concentration", "setting": "[3]", "result": "30 to 60", "unit": "min"}, {"measurement": "Absorption of the amount of insulin administered", "setting": "[4]", "result": "1-2%"}]}]}
